# Values quoted from earlier work as cited in patent US9061040B2, “Combination therapy for breast cancer” (priority 2011, dated 2015).
# System: cytotoxic lymphocytes and natural killer cells
# Conditions: 200 μg selenium per day
structure (smiles),measurement,value
[Se] [selenium],increase in cytotoxic-lymphocyte-mediated tumor cytotoxicity,118%
same,increase in natural-killer-cell activity,82%
